The values that follow are results of earlier work, collected in patent US9937165B2, “Pharmacological chaperones for treating obesity” (Amicus Therapeutics, Inc., priority 2005, dated 2018).

Protein sequences, listed by entry. Tags and fused reporters are not part of them.
UniProt P32245, whole entry: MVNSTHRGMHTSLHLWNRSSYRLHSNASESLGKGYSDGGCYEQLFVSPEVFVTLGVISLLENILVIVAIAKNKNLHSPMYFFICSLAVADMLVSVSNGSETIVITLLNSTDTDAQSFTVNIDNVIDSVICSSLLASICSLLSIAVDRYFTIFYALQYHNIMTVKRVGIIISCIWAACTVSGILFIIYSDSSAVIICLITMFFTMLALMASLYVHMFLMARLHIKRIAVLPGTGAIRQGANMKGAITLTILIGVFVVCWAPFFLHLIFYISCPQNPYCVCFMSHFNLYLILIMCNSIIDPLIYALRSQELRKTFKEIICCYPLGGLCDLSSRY
UniProt P32245, whole entry I301T: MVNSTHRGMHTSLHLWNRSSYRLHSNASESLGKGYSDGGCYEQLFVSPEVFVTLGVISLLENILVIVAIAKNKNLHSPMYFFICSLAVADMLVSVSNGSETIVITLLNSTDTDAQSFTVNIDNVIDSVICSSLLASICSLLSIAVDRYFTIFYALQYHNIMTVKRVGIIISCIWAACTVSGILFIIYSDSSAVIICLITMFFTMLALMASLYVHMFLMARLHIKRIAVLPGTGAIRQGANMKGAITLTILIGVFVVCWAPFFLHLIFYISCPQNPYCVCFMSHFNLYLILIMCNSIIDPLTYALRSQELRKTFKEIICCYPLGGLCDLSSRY
UniProt P32245, whole entry T112M: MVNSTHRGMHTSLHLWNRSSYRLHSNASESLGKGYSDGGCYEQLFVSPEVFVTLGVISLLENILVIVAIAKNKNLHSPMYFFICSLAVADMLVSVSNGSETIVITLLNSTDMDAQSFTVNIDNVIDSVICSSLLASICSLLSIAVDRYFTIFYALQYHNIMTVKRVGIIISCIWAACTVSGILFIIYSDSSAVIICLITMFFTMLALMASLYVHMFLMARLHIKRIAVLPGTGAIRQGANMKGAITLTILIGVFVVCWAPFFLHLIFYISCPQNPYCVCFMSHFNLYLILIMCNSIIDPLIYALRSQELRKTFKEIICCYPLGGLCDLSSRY
UniProt P32245, whole entry I317T: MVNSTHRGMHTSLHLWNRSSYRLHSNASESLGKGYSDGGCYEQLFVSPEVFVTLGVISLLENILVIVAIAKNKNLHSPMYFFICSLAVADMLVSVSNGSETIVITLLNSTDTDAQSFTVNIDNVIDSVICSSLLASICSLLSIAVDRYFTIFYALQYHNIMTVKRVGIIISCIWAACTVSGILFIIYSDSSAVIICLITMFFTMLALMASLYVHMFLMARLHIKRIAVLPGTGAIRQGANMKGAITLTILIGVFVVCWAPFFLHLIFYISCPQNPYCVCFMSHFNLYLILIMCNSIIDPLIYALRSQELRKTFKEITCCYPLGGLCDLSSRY
UniProt P32245, whole entry R165Q: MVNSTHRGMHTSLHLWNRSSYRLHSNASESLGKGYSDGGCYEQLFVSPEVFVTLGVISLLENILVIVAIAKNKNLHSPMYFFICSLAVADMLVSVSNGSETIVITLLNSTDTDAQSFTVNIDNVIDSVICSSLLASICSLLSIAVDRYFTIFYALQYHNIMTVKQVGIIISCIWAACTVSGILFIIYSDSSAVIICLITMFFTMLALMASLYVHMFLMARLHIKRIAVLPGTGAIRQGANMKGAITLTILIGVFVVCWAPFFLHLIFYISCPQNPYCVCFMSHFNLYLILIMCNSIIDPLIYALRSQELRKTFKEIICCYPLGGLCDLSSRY
UniProt P32245, whole entry L250Q: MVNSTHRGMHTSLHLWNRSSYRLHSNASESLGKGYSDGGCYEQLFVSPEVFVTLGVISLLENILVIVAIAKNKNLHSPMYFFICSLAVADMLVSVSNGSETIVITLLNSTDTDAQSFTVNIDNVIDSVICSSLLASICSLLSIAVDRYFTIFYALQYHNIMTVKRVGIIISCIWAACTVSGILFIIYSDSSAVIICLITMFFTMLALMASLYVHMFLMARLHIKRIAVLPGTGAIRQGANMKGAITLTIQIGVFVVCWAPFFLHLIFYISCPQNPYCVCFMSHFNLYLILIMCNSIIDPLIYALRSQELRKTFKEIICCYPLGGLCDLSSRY
UniProt P32245, whole entry S30F/G252S: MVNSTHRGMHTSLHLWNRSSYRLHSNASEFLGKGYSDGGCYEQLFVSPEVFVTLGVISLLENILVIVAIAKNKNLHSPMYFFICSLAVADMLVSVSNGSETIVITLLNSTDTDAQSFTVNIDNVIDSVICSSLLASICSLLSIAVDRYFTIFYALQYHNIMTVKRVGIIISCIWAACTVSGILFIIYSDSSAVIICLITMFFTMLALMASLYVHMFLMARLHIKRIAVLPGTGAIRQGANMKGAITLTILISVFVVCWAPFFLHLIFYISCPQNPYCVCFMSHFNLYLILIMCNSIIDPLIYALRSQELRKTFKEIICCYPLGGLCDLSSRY
UniProt P32245, whole entry V253I: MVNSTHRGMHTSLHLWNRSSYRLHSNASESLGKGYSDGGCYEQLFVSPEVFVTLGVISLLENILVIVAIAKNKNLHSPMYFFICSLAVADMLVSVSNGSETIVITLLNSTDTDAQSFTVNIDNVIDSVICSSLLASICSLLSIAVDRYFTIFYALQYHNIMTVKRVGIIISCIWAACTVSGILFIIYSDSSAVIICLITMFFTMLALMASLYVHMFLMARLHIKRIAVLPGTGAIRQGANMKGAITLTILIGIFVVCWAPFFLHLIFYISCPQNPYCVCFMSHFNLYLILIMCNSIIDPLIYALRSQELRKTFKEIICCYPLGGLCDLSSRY
UniProt P32245, whole entry I170V: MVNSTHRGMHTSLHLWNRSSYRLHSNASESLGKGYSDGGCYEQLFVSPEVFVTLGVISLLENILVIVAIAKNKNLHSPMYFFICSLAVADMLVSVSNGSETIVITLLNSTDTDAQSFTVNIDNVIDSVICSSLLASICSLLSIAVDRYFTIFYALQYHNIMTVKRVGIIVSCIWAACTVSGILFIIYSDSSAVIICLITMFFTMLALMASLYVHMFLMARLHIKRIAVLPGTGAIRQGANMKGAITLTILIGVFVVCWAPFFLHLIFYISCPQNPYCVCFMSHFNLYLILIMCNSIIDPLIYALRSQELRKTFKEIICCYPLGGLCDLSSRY
UniProt P32245, whole entry R165W: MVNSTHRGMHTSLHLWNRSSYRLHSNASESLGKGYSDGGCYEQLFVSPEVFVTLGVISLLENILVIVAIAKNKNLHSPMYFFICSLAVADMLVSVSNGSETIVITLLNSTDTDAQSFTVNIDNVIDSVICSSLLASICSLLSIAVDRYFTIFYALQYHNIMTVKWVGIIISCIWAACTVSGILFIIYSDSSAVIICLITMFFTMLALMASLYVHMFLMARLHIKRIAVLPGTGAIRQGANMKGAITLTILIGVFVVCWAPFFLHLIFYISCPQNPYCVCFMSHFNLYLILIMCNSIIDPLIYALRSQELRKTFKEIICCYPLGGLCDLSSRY

Broadly, the IC50 is the concentration that inhibits the measured activity by half.

One data set deals with MC4R (Homo sapiens, UniProt P32245). The following applies: cited from earlier work.
Another data set concerns the target MC4R I301T (Homo sapiens, UniProt P32245, I301T). The following applies: mutant I301T; +/- S.E.; cited from earlier work.
The target in the next data set is MC4R T112M (Homo sapiens, UniProt P32245, T112M). The following applies: mutant T112M; +/- S.E.; cited from earlier work.
In the next data set the target is MC4R I317T (Homo sapiens, UniProt P32245, I317T). Conditions: mutant I317T; +/- S.E.; cited from earlier work.
A further data set concerns the target MC4R R165Q (C886A) (Homo sapiens, UniProt P32245, R165Q). The following applies: mutant R165Q (C886A); +/- S.E.; cited from earlier work.
In the next data set the target is WT MC4R (Homo sapiens, UniProt P32245). Conditions: +/- S.E.; cited from earlier work.
A further data set deals with MC4R L250Q (Homo sapiens, UniProt P32245, L250Q). The following applies: mutant L250Q; +/- S.E.; cited from earlier work.
The next data set has as its target MC4R S30F/G252S (Homo sapiens, UniProt P32245, G252S/S30F). The following applies: mutant S30F/G252S; +/- S.E.; cited from earlier work.
The target of a further data set is MC4R V253I (A700G) (Homo sapiens, UniProt P32245, V253I). Conditions: mutant V253I (A700G); +/- S.E.; cited from earlier work.
The target of another data set is MC4R I170V (Homo sapiens, UniProt P32245, I170V). Conditions: mutant I170V; +/- S.E.; cited from earlier work.
A further data set addresses MC4R R165W (C886T) (Homo sapiens, UniProt P32245, R165W). The following applies: mutant R165W (C886T); +/- S.E.; cited from earlier work.

Turning to `O=C(N[C@H](Cc1ccc(Cl)cc1)C(=O)N1CCN(c2ccccc2CN2CCCC2)CC1)[C@H]1Cc2ccccc2CN1` [Compound 2], the half-maximal inhibitory concentration (IC50) at MC4R was 24 nM.
In the case of ^125I-[Nle^4,D-Phe^7]α-MSH, the IC50 at MC4R I301T was 5.8 ± 0.78 nM; at MC4R T112M it was 5.4 ± 0.64 nM; at MC4R I317T, 7.8 ± 0.44 nM; on MC4R R165Q (C886A), 8.9 ± 12 nM; at WT MC4R, 9.1 nM; on MC4R L250Q it was 3.4 ± 0.69 nM. The IC50 on MC4R S30F/G252S is 6.7 ± 0.3 nM; at MC4R V253I (A700G) it was 8.1 ± 0.25 nM; on MC4R I170V it was 8.9 ± 1.7 nM; at MC4R R165W (C886T) it was 8.7 ± 1 nM.
